Measured values from US10548896B2, “Treatment of relapsed and/or refractory solid tumors and non-Hodgkin's lymphomas” (CELGENE QUANTICEL RESEARCH, INC., priority 2016, dated 2020).

Key:
[1] = system: MKL-1 hMCC cells; experiment: cells; settings: Homo sapiens, MKL-1, 168 h
[2] = system: MS-1 hMCC cells; experiment: cells; settings: Homo sapiens, 168 h
[3] = system: ST18 and FREM2 gene expression in MS-1 cells; settings: 3 days, 0 to 200 nM
[4] = system: ST18 and FREM2 gene expression in MKL-1 cells; settings: 3 days, 0 to 200 nM

Question: For `COc1ccc(-c2c(-c3ccc(C#N)c(F)c3)nc(N3CCC(N)CC3)n(C)c2=O)cc1F` [Compound A, 4-[2-(4-amino-piperidin-1-yl)-5-(3-fluoro-4-methoxy-phenyl)-1-methyl-6-oxo-1,6-dihydro-pyrimidin-4-yl]-2-fluoro-benzonitrile], which IC50 [1] is on record?
Answer: The IC50 was < 20 nM.

Question: What about the IC50 [2] of the same compound?
Answer: The IC50 was < 20 nM.

Question: What about the “EC50 values for modulation of ST18 and FREM2 gene expression” value [3] of the same compound?
Answer: The value was “correlated with the IC50 values”.

Question: And the “EC50 values for modulation of ST18 and FREM2 gene expression” value [4]?
Answer: Its value is “correlated with the IC50 values”.
